{"source": "patent US9598503B2", "about": "“Methods and systems for polymer precipitation and generation of particles” (CERULEAN PHARMA INC., priority 2012, dated 2017)", "conditions": "filtrate (0.22 μm) of the water suspension after two hours of stirring", "note": "Read-outs that look alike come from different tables or passages of the source.", "data": [{"substance": "Poly-CD-Glycine-Docetaxel [CDP No. 1]", "values": [{"measurement": "PS Zave", "setting": "CDP No. 1:Celite ratio 1:10 w/w", "result": 24, "unit": "nm"}, {"measurement": "PS Zave", "setting": "CDP No. 1:Celite ratio 1:15 w/w", "result": 25, "unit": "nm"}]}]}
